Reference: ChEMBL document CHEMBL6109148, “Development of Squaramides as Allosteric Modulators of the CB1 Receptor: Synthesis, Computational Studies, Biological Characterization, and Effects against Cocaine-Induced Behavioral Sensitization and Reinstatement in Rats” (J Med Chem, 2025)

Protein sequences, listed by entry. Tags and fused reporters are not part of them.
UniProt P21554, whole entry: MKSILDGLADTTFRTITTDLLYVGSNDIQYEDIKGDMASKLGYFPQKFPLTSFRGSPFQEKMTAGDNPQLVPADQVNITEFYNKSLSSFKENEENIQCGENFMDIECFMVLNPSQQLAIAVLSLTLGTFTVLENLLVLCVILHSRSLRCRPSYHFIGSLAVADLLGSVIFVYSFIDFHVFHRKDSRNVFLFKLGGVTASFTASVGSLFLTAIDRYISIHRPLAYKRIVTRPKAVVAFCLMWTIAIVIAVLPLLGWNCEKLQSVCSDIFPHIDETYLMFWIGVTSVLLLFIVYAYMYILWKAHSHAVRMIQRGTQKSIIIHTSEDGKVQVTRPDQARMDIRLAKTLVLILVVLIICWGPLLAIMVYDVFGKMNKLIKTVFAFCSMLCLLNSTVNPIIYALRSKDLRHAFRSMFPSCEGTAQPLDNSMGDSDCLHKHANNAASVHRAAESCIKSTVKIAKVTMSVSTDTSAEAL

Assays:
Cannabinoid receptor 1 [1] = molecular target: T1, Cannabinoid receptor 1 (Homo sapiens, UniProt P21554); test: Negative allosteric modulation of human CB1 receptor stably expressed in CHO-RD-HGA16 cells assessed as inhibition of CP55940-induced intracellular calcium mobilization incubated for 15 mins by FLIPR assay; type: functional, cell-based
Cannabinoid receptor 1 [2] = molecular target: T1, Cannabinoid receptor 1; test: Agonist activity at human CB1 receptor stably expressed in CHO-RD-HGA16 cells assessed as increase in intracellular calcium mobilization at 10 uM by FLIPR assay relative to CP55940; type: functional, cell-based

IC50 (Cannabinoid receptor 1 [1]) [nM]	SMILES	Activity (Cannabinoid receptor 1 [2]) [%]
29.5	O=C(Nc1ccc(Cl)cc1)Nc1cccc(-c2cccc(N3CCCC3)n2)c1	–
–	O=c1c(NCCc2ccc(Cl)cc2Cl)c(Nc2ccc(Cl)cc2)c1=O	< 30
